Earlier results, collected in article PMC8380238, “Structure-based virtual screening of CYP1A1 inhibitors: towards rapid tier-one assessment of potential developmental toxicants” (Archives of Toxicology, 2021).

Test system: human CYP1A1
Conditions: NVS_ADME_hCYP1A1; values appear to be log10; ref ToxCast; cited from earlier work

In the case of `CC(C)OP(=S)(OC(C)C)SCCNS(=O)(=O)c1ccccc1`, the AC50 is listed as -0.2589.
